Results as given in paper PMC5962642, “Dynamic imaging of adaptive stress response pathway activation for prediction of drug induced liver injury” (Archives of Toxicology, 2018).

Tests used:
[1] = ref livertox.nih.gov database; cited from earlier work
[2] = test system: Srxn1-GFP (oxidative stress); assay: HepG2 Srxn1-GFP BAC reporter, live cell confocal imaging (oxidative stress); format: cell-based, Human; conditions: order of responses in 24 h; 100× C-max printed for nimesulide, rifampicin, oxytetracycline
[3] = test system: CHOP-GFP (ER stress/UPR response); assay: HepG2 CHOP-GFP BAC reporter, live cell confocal imaging (ER stress/UPR); format: cell-based, Human; conditions: order of responses in 24 h; 100× C-max printed for nimesulide, rifampicin, oxytetracycline
[4] = two classes made from the FDA DILI-concern labeling

SMILES | Metab (metabolic potential) [1] | Srxn1-GFP response, time dynamics relative to CHOP-GFP [2] | CHOP-GFP response, time dynamics relative to Srxn1-GFP [3] | Severity class [4]
O=C(O)Cc1ccccc1Nc1c(Cl)cccc1Cl [Diclofenac] | YES |  |  | 
Nc1nc(O)c2ncn(COC(CO)CO)c2n1 [Ganciclovir] | YES |  |  | 
CS(=O)(=O)Nc1ccc([N+](=O)[O-])cc1Oc1ccccc1 [Nimesulide] |  | delayed Srxn1-GFP response | initial CHOP-GFP response | Sev.
CCCc1cc(=O)[nH]c(=S)[nH]1 [Propylthiouracil] | YES |  |  | 
